Only a part is listed here, and it is no random draw. Inconclusive results are not listed. Entries that show only a call come without a potency. Activity calls are given as the source filed them. The call rests on the fitted dose curve; in most records, active means well fitted inhibition curve with a large enough effect; inconclusive means small, poorly fitted or top-dose-only effect, or effect the other way, or another doubt; inactive means no such curve, though single readings can be large or run the other way.
Assay: Nrf2 qHTS screen for inhibitors: counterscreen for cytotoxicity
Conditions: A549 ARE-Fluc cells, CellTiter-Fluor viability, 18-24 h; series mostly up to 46 µM
Procedure, shortened: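 Cytotoxicity counterscreen: CellTiter-Fluor fluorescence was measured in A549 ARE_Fluc cells after 18-24 h of compound exposure in a concentration series. The subsequent BugLite luminescent read reports ARE-luciferase activity.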
In the case of `Nc1ccc([As](=O)(O)c2ccc([N+](=O)[O-])cc2)cc1`, the Potency was “inactive”.
With `O=C(OC1CN2CCC1CC2)c1cccc(Cl)c1` (stereo not drawn) the Potency was “inactive”.
With `O=[N+]([O-])c1ccc(O)c(/C=N/Nc2ccc([N+](=O)[O-])cc2[N+](=O)[O-])c1` the Potency was “inactive”.
With `CC(=O)NC(SC(=S)N(C)C)C(Cl)(Cl)Cl` (stereo not drawn) the Potency was “inactive”.
In the case of `O=[N+]([O-])c1ncn(CCn2cnc([N+](=O)[O-])n2)n1`, the Potency was “inactive”.
With `O=[As](O)(c1ccccc1)c1ccc(O)cc1` the Potency was “inactive”.
With `O=P(Nc1nc2ccccc2s1)(c1ccccc1)c1ccccc1` the Potency was “inactive”.
For `C[C@H]1OP(=O)(Oc2ccccc2)[C@H](O)[C@H](O)[C@H]1N=[N+]=[N-]` (stereo partly drawn), the Potency was “inactive”.
For `COc1ccc(N)c([N+](=O)[O-])c1[N+](=O)[O-]`, the Potency was “inactive”.
For `O=P(Nc1ccccn1)(c1ccc(Br)cc1)c1ccc(Br)cc1`, the Potency was “inactive”.
For `CN(C)C1(CNC(=O)c2ccc(Cl)c(S(N)(=O)=O)c2)CCCCC1`, the Potency was “inactive”.
With `c1nnnn1CCn1cnnn1` the Potency was “inactive”.
For `CC(C)C(=O)NC(Sc1ccccc1)C(Cl)(Cl)Cl` (stereo not drawn), the Potency was “inactive”.
In the case of `O=P(Nc1nccs1)(c1ccccc1)c1ccccc1`, the Potency was “inactive”.
With `CC(=O)Nc1ccc([As](=O)(O)O)c(O)c1` the Potency was “inactive”.
In the case of `CC(=O)Nc1ccc(Oc2c([N+](=O)[O-])cc([N+](=O)[O-])cc2[N+](=O)[O-])cc1`, the Potency was “inactive”.
In the case of `CC(=O)c1ccc(N2CC2c2ccncc2)cc1` (stereo not drawn), the Potency was “inactive”.
With `COC(=O)C1(C)COP(=O)(NCc2ccccc2)OC1` (stereo not drawn) the Potency was “inactive”.
For `Cc1ccccc1CN(C)C(=O)COC(=O)C(O)(c1ccccc1)c1ccccc1`, the Potency was “inactive”.
With `C[C@H]1OP(=O)(Oc2ccccc2)C[C@@H]2O[C@@H]21` (stereo partly drawn) the Potency was “inactive”.
With `C[C@@H]1C=CCP(=O)(Oc2ccccc2)O1` (stereo partly drawn) the Potency was “inactive”.
For `CCc1cc(O)c([N+](=O)[O-])c(C)c1[N+](=O)[O-]`, the Potency was “inactive”.
With `CC(C)(C)C(=O)NC(Sc1ccccc1)C(Cl)(Cl)Cl` (stereo not drawn) the Potency was “inactive”.
For `O=P1(Nc2nc3ccc(Cl)cc3s2)COc2ccccc2O1` (stereo not drawn), the Potency was “inactive”.
In the case of `CCOc1ccc(C2=NCC(CBr)S2)cc1` (stereo not drawn), the Potency was “inactive”.
With `CC(NC(=O)COC(=O)C(O)(c1ccccc1)c1ccccc1)c1ccccc1` (stereo not drawn) the Potency was “inactive”.
For `Cc1ccccc1OP(=O)(Nc1ccccn1)Oc1ccccc1C`, the Potency was “inactive”.
In the case of `CN(C)C(=O)Oc1noc2ccccc12`, the Potency was “inactive”.
In the case of `COC(=O)c1cc2c(s1)N=C(c1ccccc1)N(C)P2(=O)N1CCOCC1` (stereo not drawn), the Potency was “inactive”.
In the case of `CC(=O)NC(SC(=S)N(CC(C)C)CC(C)C)C(Cl)(Cl)Cl` (stereo not drawn), the Potency was “inactive”.
In the case of `Cc1ccc(OP(=O)(Nc2ccccn2)Oc2ccc(C)cc2)cc1`, the Potency was “inactive”.
With `O=C(OC1CN2CCC1CC2)c1ccccc1` (stereo not drawn) the Potency was “inactive”.
In the case of `CCC(=O)N1C2C3N(C(=O)CC)C1C1N(C(=O)CC)C(C(N1C(=O)CC)N3C(=O)CC)N2C(=O)CC`, the Potency was “inactive”.
For `O=P1(N(CCCl)CCCl)OCCC2CCCCN21` (stereo not drawn), the Potency was “inactive”.
In the case of `CCNC(=S)/N=C(\N)N[N+](=O)[O-]`, the Potency was “inactive”.
With `O=C(NC1CCS(=O)(=O)C1)NP(=S)(Oc1ccccc1)Oc1ccccc1` (stereo not drawn) the Potency was “inactive”.
In the case of `c1ccc(-c2nn[nH]n2)c(-c2nn[nH]n2)c1`, the Potency was “inactive”.
In the case of `Cc1ccc(NP(=O)(Oc2cccc(C)c2)Oc2cccc(C)c2)nc1`, the Potency was “inactive”.

Source: PubChem BioAssay AID504648 (National Center for Advancing Translational Sciences (NCATS), 2011)
